{"source": "ChEMBL document CHEMBL1143520", "about": "“Bicyclic amidine inhibitors of nitric oxide synthase: discovery of perhydro-iminopyrindine and perhydro-iminoquinoline as potent, orally active inhibitors of inducible nitric oxide synthase” (Bioorg Med Chem Lett, 2005)", "target": "T1, Nitric oxide synthase 3 (Homo sapiens, UniProt P29474)", "T1 sequence (P29474 whole entry)": "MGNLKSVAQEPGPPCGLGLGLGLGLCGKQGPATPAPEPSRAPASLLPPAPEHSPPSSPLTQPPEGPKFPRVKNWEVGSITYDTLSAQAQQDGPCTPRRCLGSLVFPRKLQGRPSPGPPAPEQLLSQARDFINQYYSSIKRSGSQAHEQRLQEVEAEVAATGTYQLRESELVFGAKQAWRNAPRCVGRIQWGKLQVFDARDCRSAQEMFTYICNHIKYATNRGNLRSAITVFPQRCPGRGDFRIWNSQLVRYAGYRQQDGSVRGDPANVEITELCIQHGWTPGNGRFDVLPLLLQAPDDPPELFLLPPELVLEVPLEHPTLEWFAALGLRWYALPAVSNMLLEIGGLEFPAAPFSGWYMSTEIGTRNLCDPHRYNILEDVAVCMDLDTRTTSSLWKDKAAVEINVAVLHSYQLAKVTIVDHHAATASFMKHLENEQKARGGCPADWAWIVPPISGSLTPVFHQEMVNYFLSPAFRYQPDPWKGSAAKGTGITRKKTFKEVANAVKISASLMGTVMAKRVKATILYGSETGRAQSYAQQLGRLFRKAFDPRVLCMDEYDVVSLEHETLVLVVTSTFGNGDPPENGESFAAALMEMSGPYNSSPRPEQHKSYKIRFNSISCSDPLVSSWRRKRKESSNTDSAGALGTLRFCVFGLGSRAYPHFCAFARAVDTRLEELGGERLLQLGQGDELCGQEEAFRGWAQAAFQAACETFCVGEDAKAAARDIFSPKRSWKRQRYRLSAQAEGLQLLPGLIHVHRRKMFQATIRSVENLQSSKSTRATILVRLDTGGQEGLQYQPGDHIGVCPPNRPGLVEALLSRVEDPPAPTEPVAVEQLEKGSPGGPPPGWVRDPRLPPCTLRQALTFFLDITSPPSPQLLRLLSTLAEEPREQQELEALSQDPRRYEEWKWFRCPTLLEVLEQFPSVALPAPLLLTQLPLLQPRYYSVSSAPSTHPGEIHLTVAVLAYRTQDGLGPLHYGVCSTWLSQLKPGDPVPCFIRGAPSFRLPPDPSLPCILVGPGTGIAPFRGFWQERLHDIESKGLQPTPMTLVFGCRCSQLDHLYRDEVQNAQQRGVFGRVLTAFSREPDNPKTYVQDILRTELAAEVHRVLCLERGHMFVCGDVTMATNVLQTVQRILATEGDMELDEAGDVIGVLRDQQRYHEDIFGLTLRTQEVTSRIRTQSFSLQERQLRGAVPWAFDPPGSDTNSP", "test": "Inhibitory activity against human Endothelial nitric oxide synthase (eNOS)", "data": [{"compound": "CC1CC(N)=Nc2ccccc21", "note": "(stereo unspecified)", "values": [{"measurement": "IC50", "value": 15.3, "unit": "µM"}]}]}
